The text below walks through data of ChEMBL document CHEMBL1145173, “Stereoselective synthesis of [L-Arg-L/D-3-(2-naphthyl)alanine]-type (E)-alkene dipeptide isosteres and its application to the synthesis and biological evaluation of pseudopeptide analogues of the CXCR4 antagonist FC131” (J Med Chem, 2005).

Amino acid sequences for entries named in this document (tags omitted).
UniProt P61073, whole entry: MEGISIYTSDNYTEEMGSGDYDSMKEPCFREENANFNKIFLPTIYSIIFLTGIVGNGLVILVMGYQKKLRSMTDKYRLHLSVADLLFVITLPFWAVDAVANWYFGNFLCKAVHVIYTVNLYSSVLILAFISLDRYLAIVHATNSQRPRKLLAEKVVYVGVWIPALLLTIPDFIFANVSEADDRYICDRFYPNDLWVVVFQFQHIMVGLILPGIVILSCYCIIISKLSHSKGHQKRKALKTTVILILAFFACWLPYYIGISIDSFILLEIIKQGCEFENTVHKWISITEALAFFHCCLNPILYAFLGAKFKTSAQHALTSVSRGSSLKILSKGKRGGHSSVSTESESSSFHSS

Molecules are shown by their SMILES.

This experiment concerns the target C-X-C chemokine receptor type 4 (Homo sapiens, UniProt P61073). The experiment is described as follows: Inhibition of [125I]SDF-1 binding to C-X-C chemokine receptor type 4 expressed in CHO cells. It counts as cell-based. In a few lines: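 Stably transfected CXCR4 CHO cells, trypsin/EDTA harvested, recovered 4–5 h in MEM-α growth medium, washed in cold PBS with 2 mg/mL BSA; 1×10^7 cells/mL incubated with 0.1 nM [125I]-SDF-1 plus compound 2 h on ice with agitation; bound/free split by oil-cushion centrifugation, gamma counting; IC₅₀, mean of ≥3 experiments.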

By IC50 is commonly meant the concentration needed to halve the response being measured. A low value points to inhibition by little substance. As for `N=C(N)NCCC[C@@H]1NC(=O)[C@@H](Cc2ccc(O)cc2)NC(=O)CNC(=O)[C@@H](Cc2ccc3ccccc3c2)NC(=O)[C@H](CCCN=C(N)N)NC1=O`, the IC50 amounted to 190 nM.
